Experimental data: ChEMBL document CHEMBL4406833 (Eur J Med Chem, 2019)
In brackets after ≈: the same amount, converted by molar mass.

Key:
[1] = Apparent permeability across apical to basolateral side in human Caco2 cells upto 90 mins by LC-MS/MS analysis; type: ADME, cell-based; settings: caco-2, 1.5 h
[2] = Aqueous solubility of compound at 1 mg after 30 hrs by HPLC analysis; type: physicochemical; settings: in vivo
[3] = AUC in rat at 2.5 mg/kg, iv after 24 hrs by LC-MS/MS analysis; settings: in vivo
[4] = Half life in rat at 10 mg/kg, po after 24 hrs by LC-MS/MS analysis; settings: in vivo
[5] = Half life in rat at 2.5 mg/kg, iv after 24 hrs by LC-MS/MS analysis; settings: in vivo
[6] = Half life in human serum at 0.5 mM after 0.5 to 24 hrs by HPLC analysis; settings: 500 µM
[7] = Oral bioavailability in rat at 10 mg/kg after 24 hrs by LC-MS/MS analysis; settings: in vivo
[8] = Volume of distribution in rat at 10 mg/kg, po after 24 hrs by LC-MS/MS analysis; settings: in vivo
[9] = Clearance in rat at 2.5 mg/kg, iv or 10 mg/kg, po after 24 hrs by LC-MS/MS analysis; settings: in vivo

| SMILES | Papp [1] | solubility [2] | AUC [3] | t1/2 [4] | t1/2 [5] | t1/2 [6] | bioavailability [7] | Vd [8] | clearance [9] |
| --- | --- | --- | --- | --- | --- | --- | --- | --- | --- |
| COP(C)(=O)NCCCCNc1nonc1/C(=N/O)Nc1ccc(F)c(Br)c1 (stereo not drawn) | 2.1 ×10⁻⁶ cm/s | 160 µg/mL (≈ 334 µM) |  |  |  |  |  |  |  |
| COP(C)(=O)NCCNc1nonc1/C(=N/O)Nc1ccc(F)c(Br)c1 (stereo not drawn) | 2.9 ×10⁻⁶ cm/s | 210 µg/mL (≈ 465 µM) | 902 ng·h/mL | 54.6 min | 39.6 min | > 1440 min | 11% | 2.09 L/kg | 46.8 mL/min/kg |
| CCOP(=O)(CC)NCCNc1nonc1/C(=N/O)Nc1ccc(F)c(Br)c1 (stereo not drawn) | 1.9 ×10⁻⁶ cm/s | 250 µg/mL (≈ 522 µM) |  |  |  |  |  |  |  |
